According to patent US6689803B2, “Compositions and methods for treating surgical adhesions” (Angiotech Pharmaceuticals, Inc., priority 1996, dated 2004):

System: chick chorioallantoic membrane (CAM) vasculature
Assay: Chick chorioallantoic membrane (CAM) assay
Conditions: PCL paste, concentrations exceeding 2%

In the case of `CC[C@]1(O)C[C@@H]2CN(CCc3c([nH]c4ccccc34)[C@@](C(=O)OC)(c3cc4c(cc3OC)N(C)[C@H]3[C@@](O)(C(=O)OC)[C@H](OC(C)=O)[C@]5(CC)C=CCN6CC[C@]43[C@@H]65)C2)C1`, the “toxicity to the embryo” value was “toxic to the embryo”.
